Screening results (PubChem)
LMNA splice mod: LMNA splicing modulation. HeLa LMNA splicing GFP/RFP minigene ratio, 48 h. Potency, µM (series often up to 46.1 µM), without a hit: at the highest dose ratio change, negative = inhibition, usual class: inhibitors. 0.01% of 200,000 active. AID 1487; active means well fitted inhibition curve with a large enough effect in the signal ratio, with a control signal flat, not every such curve was filed as active; inconclusive means small, poorly fitted or top-dose-only effect, or effect the other way, or a change in a side signal; the % refers to the signal ratio; further: potency means the concentration at half of the fitted maximal effect; on the % scale 0 is the no-effect control and ±100 the full control effect
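Read-out is the ratio of GFP to DsRed2 object intensity, acquired by 488 nm laser-scanning cytometry on HeLa lamin A-EGFP minigene reporter cells. Compound incubation 48 hrs at 37 °C in Opti-MEM with 2% FBS; DMSO 0.5% final.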
JMJD2E inh: inhibitors of human JMJD2E histone demethylase. B2RXH2. JMJD2E catalytic domain, FDH-coupled NADH fluorescence (FDH is formaldehyde dehydrogenase). Potency, µM (doses to about 57.1 µM), without a hit: top-dose activity change, negative = inhibition, hits mostly inhibitors. 1.6% of 230,000 active. AID 2147; active means well fitted inhibition curve with a large enough effect, not every such curve was filed as active; inconclusive means small, poorly fitted or top-dose-only effect, or another doubt; inactive means no such curve, though single readings can be large or run the other way;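 further: potency means the concentration at half of the fitted maximal effect; 0% = wells with enzyme and -100% = buffer wells without enzyme; nearly all actives have a fitted effect of over 50% in size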
miR-21 reporter: raises the signal of a miR-21 reporter | HeLa miR-21 FLuc reporter, luciferase, 48 h | Potency, µM (highest dose often 38.3 µM), inactives show at the highest dose reporter change, positive = more light | 340,000 tested, under 10 active | AID 2288; active = well fitted rising curve with a large enough effect; inconclusive = small, poorly fitted or top-dose-only effect; inactive = no such curve, though single readings can be large or run the other way;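 note: % of control where 0% means no effect; miR-21 action dims this reporter so a rising signal means less miR-21 action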
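Compounds were titrated across several concentrations (up to approximately 40 uM) and incubated 48 hours with HeLa miR-21-FLuc reporter cells (miR-21 target sequence downstream of FLuc, endogenous miR-21). Readout was firefly luciferase luminescence after lytic detection reagent.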
G9a inh: inhibitors of human histone lysine methyltransferase G9a; Q96KQ7; G9a H3K9 monomethylation, AlphaScreen, 2 h; Potency, µM (top dose mostly 102 µM), without a hit: at the highest dose activity, negative = inhibition, actives largely listed as inhibitors; 8.8% of 350,000 active; AID 504332; further: potency means the concentration at half of the fitted maximal effect; on the % scale 0 is the no-effect control and ±100 the full control effect; nearly all actives have a fitted effect of over 75% in size
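Quantitative HTS format: methyltransferase activity on a biotin-tagged H3K9 peptide is measured by AlphaScreen, using a rabbit anti-monomethyl-H3K9 antibody with streptavidin donor and anti-IgG acceptor beads. Final levels are 20 nM enzyme, 500 nM peptide, 20 uM SAM; 2 h RT.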
Sfp PPTase inh: qHTS Assay for Inhibitors of Bacillus subtilis Sfp phosphopantetheinyl transferase (PPTase). 4'-phosphopantetheinyl transferase ffp (Bacillus subtilis), Q9F4F7. Biochemical Sfp PPTase activity, qHTS. Potency, µM, inactives show max response, negative = inhibition, usual class: inhibitors. hit rate 3.5% among 310,000; active means well fitted inhibition curve with a large enough effect; inconclusive means small, poorly fitted or top-dose-only effect, or another doubt; inactive means no such curve, though single readings can be large or run the other way;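 further: the enzyme is Sfp with the accession as filed and its product quenches rhodamine fluorescence; potency means the concentration at half of the fitted maximal effect; 0% = enzyme reaction without inhibitor and -100% = no enzyme wells; top concentration of the series not given in the record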
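Reaction rates are the 30-min fluorescence difference (ex 525, em 598 nm) in wells containing 15 nM Sfp, 5 uM rhodamine-CoA and 12.5 uM BHQ-2-YbbR at pH 7.6 with 10 mM MgCl2.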
ALDH1A1 block: blocks purified human ALDH1A1 activity. P00352. Purified ALDH1A1, NADH fluorescence, propionaldehyde substrate. Potency, µM (top dose mostly 75.3 µM), for inactives: at the highest dose activity, negative = inhibition, hits mostly inhibitors. 7.3% of 220,000 active. AID 1030; active means well fitted inhibition curve with a large enough effect, not every such curve was filed as active; inconclusive means small, poorly fitted or top-dose-only effect, or another doubt; inactive means no such curve, though single readings can be large or run the other way;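 further: potency means the concentration at half of the fitted maximal effect; plate controls were no enzyme wells and a reference inhibitor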
The depositor's hits bear a star; ? = inconclusive; . = not tested or not shown; [ ] = another dose, or the depositor's remark. Most compounds without a hit are left out; they make up all but 13% or so of the library. Unless noted, the call rests on the fitted dose curve; in most records, active means well fitted curve in the direction sought with a large enough effect; inconclusive means small, poorly fitted or top-dose-only effect, or another doubt; inactive means no such curve, though single readings can be large; an effect the other way counts as inactive or inconclusive.

1) CCOc1ccc(C(=O)C(C)OC(=O)CN2C(=O)NC(C)(C)C2=O)cc1 (stereo not given)
2) N#Cc1cccc(NC(=O)N2CC[C@@]3(CCCN(S(=O)(=O)c4ccccc4)C3)C2)c1
3) COC(=O)Sc1nnc(-c2ccc(Br)cc2)o1
4) COc1ccc(C)cc1NC(=O)CSc1nnc(-c2ccc(Br)cc2)o1
5) O=C(NC(C(=O)N/N=C/c1cc([N+](=O)[O-])ccc1O)c1n[nH]c(=O)c2ccccc12)c1ccccc1 (stereo not given)
6) CC1(C)CC(=O)C(C(C2=C(O)CC(C)(C)CC2=O)c2ccc(Br)s2)C(=O)C1 (stereo not given)
7) Cc1ccc(C(C2=C(O)CC(C)(C)CC2=O)C2C(=O)CC(C)(C)CC2=O)s1 (stereo not given)
8) O=C(Nc1nccs1)c1ccc(COc2c(F)c(F)cc(F)c2F)cc1

| Compound | 1 | 2 | 3 | 4 | 5 | 6 | 7 | 8 |
| --- | --- | --- | --- | --- | --- | --- | --- | --- |
| LMNA splice mod | . | . | -8% | 1% | . | ? | 8% | . |
| JMJD2E inh | . | . | ? | 0% | . | 20µM* | -14% | . |
| miR-21 reporter | . | . | -15% | -11% | 0% | 18% | 3% | -28% |
| G9a inh | -1% | 34%[12.7 µM] | ? | 10%[59 µM] | ? | ? | ? | 22%[0.501 µM] |
| Sfp PPTase inh | . | 3% | -27% | 1% | 7% | 20µM* | 35µM* | -1% |
| ALDH1A1 block | . | -1% | 8.9µM* | ? | . | 3.5µM* | 8.9µM* | . |

9) Cc1ccccc1N=C1c2cc([N+](=O)[O-])ccc2-c2ncccc21
10) CC(C)NC(=O)NC(=O)COc1ncnc2sccc12
11) CC(C)NC(=O)COc1ncnc2sccc12
12) COc1ccc(-c2noc(N3CCC(C(=O)N(C)c4cc(Cl)ccc4OC)CC3)n2)cc1
13) CC(C)n1c(O)c(N=NC(=O)C2COc3ccccc3O2)c2ccccc21 (stereo not given)
14) Cn1c(O)c(N=NC(=O)C2COc3ccccc3O2)c2ccccc21 (stereo not given)
15) O=C(C1CCCO1)N1CCN(c2c3c(nc4cc(-c5ccc(F)cc5)nn24)CCC3)CC1 (stereo not given)
16) OC1CCN(c2c3c(nc4cc(-c5ccc(F)cc5)nn24)CCC3)CC1

| Compound | 9 | 10 | 11 | 12 | 13 | 14 | 15 | 16 |
| --- | --- | --- | --- | --- | --- | --- | --- | --- |
| LMNA splice mod | 10% | -11% | -2% | 0%[46 µM] | ? | . | 7% | ? |
| JMJD2E inh | -9% | ? | -1% | . | 1% | -4% | 8% | ? |
| miR-21 reporter | -1% | 0% | -2% | 0% | 0% | 1% | -17% | -15% |
| G9a inh | 7.9µM* | 50µM* | 0%[12.7 µM] | 2%[59 µM] | 35µM* | 1%[12.7 µM] | 3%[59 µM] | 2% |
| Sfp PPTase inh | -14% | -12% | 15% | . | 1% | -3% | 4% | 10% |
| ALDH1A1 block | -6% | 0% | 9% | . | ? | . | 22µM* | 6% |

17) CCCN1C(=O)/C(=N\OCC(=O)NCC(F)(F)F)c2ccccc21
18) CC(C)(C)S(=O)(=O)/C(C#N)=C/c1sccc1C1OCCO1
19) CCOc1ccc(C(=O)Nc2cccc(NC(=O)c3ccc(Cl)cc3Cl)c2)cc1
20) O=C(Nc1nc(N2C(=O)c3ccccc3C2=O)n(-c2ccccc2)n1)c1ccccc1
21) CC(=O)Nc1nc(N2C(=O)c3ccccc3C2=O)n(-c2ccccc2)n1
22) O=C(Nc1nc(N2C(=O)c3ccccc3C2=O)n(-c2ccccc2)n1)c1ccc(F)cc1
23) CC(=O)Nc1nc(N)n(-c2ccccc2)n1
24) COc1ccc(C(=O)Nc2nc(N3C(=O)c4ccccc4C3=O)n(-c3ccccc3)n2)cc1

| Compound | 17 | 18 | 19 | 20 | 21 | 22 | 23 | 24 |
| --- | --- | --- | --- | --- | --- | --- | --- | --- |
| LMNA splice mod | -3% | . | . | 5% | -2% | ? | ? | 12% |
| JMJD2E inh | ? | -14% | . | -20% | -27% | -8% | -4% | -7% |
| miR-21 reporter | -2% | -3% | -1% | -23% | 2% | -7% | -4% | -4% |
| G9a inh | -15%[59 µM] | 0% | 5%[59 µM] | -12% | ? | 2% | -16%[59 µM] | 35%[59 µM] |
| Sfp PPTase inh | -1% | 4% | . | 0.89µM* | 8.9µM* | ? | 12% | ? |
| ALDH1A1 block | 1.3µM* | 7.9µM* | . | 3% | -11% | 20µM* | 2% | 6% |

25) COc1ccccc1/C=C/c1onc(C)c1S(=O)(=O)N1CCC(C(=O)N2CCC(C)CC2)CC1
26) Cc1ccc(C)c(N2C(=O)N(Cc3cc(=O)n4ccccc4n3)c3ccccc3S2(=O)=O)c1
27) CC(=O)c1cccc(NC(=O)N2CCC(NC(=O)c3ccco3)CC2)c1
28) Cc1ccc(OCCn2c(=S)[nH]c3c(N)ncnc32)cc1
29) Cc1ccc(OCCn2c(SCCO)nc3c(N)ncnc32)cc1
30) CC(C)Oc1ccc(OCCn2c(=S)[nH]c3c(N)ncnc32)cc1
31) Cc1ccc(-c2nc(CNC(=O)Nc3ccccc3)c(C)o2)cc1
32) C=CCn1c(CNS(=O)(=O)c2ccc(F)cc2)n[nH]c1=S

| Compound | 25 | 26 | 27 | 28 | 29 | 30 | 31 | 32 |
| --- | --- | --- | --- | --- | --- | --- | --- | --- |
| LMNA splice mod | 13%[46 µM] | -15%[46 µM] | . | ? | . | . | 25%[46 µM] | . |
| JMJD2E inh | . | . | . | -15% | . | -23% | . | . |
| miR-21 reporter | -1% | 22% | 5% | -9% | -7% | -5% | -1% | 0% |
| G9a inh | 4%[59 µM] | 0%[59 µM] | 0% | 3.5µM* | 1% | 2.5µM* | 10%[59 µM] | 23%[12.7 µM] |
| Sfp PPTase inh | . | . | 19% | -57% | 19% | 50µM* | . | -15% |
| ALDH1A1 block | . | . | . | 7.9µM* | . | 10µM* | . | . |

33) C=CCn1c(CNS(=O)(=O)c2ccc(Cl)cc2)n[nH]c1=S
34) C=CCn1c(Cc2c[nH]c3ccccc23)n[nH]c1=S
35) C=CCn1c(Cc2ccccc2)n[nH]c1=S
36) C=CCn1c(Cc2nc3ccc(Cl)cc3[nH]2)n[nH]c1=S
37) C=CCn1c(CNS(=O)(=O)c2ccc(Br)cc2)n[nH]c1=S
38) O=c1[nH]c2ccccc2n2cnnc12
39) Cc1c(Cl)cccc1NC(=O)CN1C(=O)c2ccccc2Sc2ncccc21
40) CC(=O)c1ccc(N2C(=O)[C@@H]3[C@H](C2=O)[C@H]2c4ccccc4C=NN2[C@@H]3C(C)=O)cc1

| Compound | 33 | 34 | 35 | 36 | 37 | 38 | 39 | 40 |
| --- | --- | --- | --- | --- | --- | --- | --- | --- |
| LMNA splice mod | . | -5% | . | 6% | . | 1%[46 µM] | . | . |
| JMJD2E inh | . | -4% | -27% | -7% | . | -27% | . | ? |
| miR-21 reporter | -4% | -1% | 1% | -25% | 0% | 3% | 4% | -10% |
| G9a inh | 32µM* | 6.3µM* | . | ? | 32µM* | 5% | -16%[59 µM] | . |
| Sfp PPTase inh | 9% | ? | -16% | 50µM* | 5% | 13% | . | -27% |
| ALDH1A1 block | . | 8.9µM* | -4% | 10µM* | . | -2% | . | . |

41) CC(=O)[C@@H]1[C@@H]2C(=O)N(c3ccccc3F)C(=O)[C@@H]2[C@H]2c3ccccc3C=NN12
42) O=C(c1ccc(Cl)cc1)[C@@H]1[C@@H]2C(=O)N(c3cccc4ccccc34)C(=O)[C@@H]2C2c3ccccc3C=NN21 (stereo not given in full)
43) N[C@@H](Cn1cc(F)c(=O)[nH]c1=O)C(=O)O
44) CCn1cc([N+](=O)[O-])c(C(=O)N2CCCc3ccccc32)n1
45) COc1ccc(C(=O)N2CCN(Cc3ccccc3)CC2)cc1[N+](=O)[O-]
46) O=C(c1ccc([N+](=O)[O-])cc1)N1CCN(Cc2ccccc2[N+](=O)[O-])CC1

| Compound | 41 | 42 | 43 | 44 | 45 | 46 |
| --- | --- | --- | --- | --- | --- | --- |
| LMNA splice mod | . | 1% | . | . | . | . |
| JMJD2E inh | -17% | -16% | ? | . | . | 1% |
| miR-21 reporter | -18% | 0% | . | -1% | 2% | 5% |
| G9a inh | 50µM* | 20µM* | . | -12% | 13% | . |
| Sfp PPTase inh | -12% | -11% | 56µM* | 6% | 9% | 50µM* |
| ALDH1A1 block | . | ? | -5% | . | . | 10µM* |

Single records, as listed above:
Entry for `CCn1cc([N+](=O)[O-])c(C(=O)N2CCCc3ccccc32)n1` : LMNA splice mod = .; JMJD2E inh = .; miR-21 reporter = -1%; G9a inh = -12%; Sfp PPTase inh = 6%; ALDH1A1 block = .
Entry for `CCCN1C(=O)/C(=N\OCC(=O)NCC(F)(F)F)c2ccccc21` : LMNA splice mod = -3%; JMJD2E inh = ?; miR-21 reporter = -2%; G9a inh = -15%[59 µM]; Sfp PPTase inh = -1%; ALDH1A1 block = 1.3µM*
